# According to patent US20030229105A1, “Treatment of autoimmune disorders” (Cyclacel Limited, priority 2002, published 2003):
# System: cdk1 and 2 transcription
# Format: cell-based
# Settings: infected cells, preliminary Northern blot (data not shown)
substance,measurement,value
Roscovitine,transcription of cdk1 and 2,not affected
